Reference: the NIST ThermoML archive (doi:10.1016/j.jct.2016.09.025)

Tests used:
[1] = Crystal; DTA
[2] = Molar enthalpy of transition or fusion; settings: Crystal; DSC

Normal melting temperature [1]: 120.02 ± 0.61 °C | Molar enthalpy of transition or fusion [2]: 17.5 ± 1.3 kJ/mol
Structure (SMILES): O=C1CCC(=O)O1 [succinic anhydride]

Numbers after ± are expanded uncertainties.
